Experimental data from US20220389009A1, “SUBSTITUTED 1,6-NAPHTHYRIDINE INHIBITORS OF CDK5” (Goldfinch Bio, Inc., priority 2019, published 2022).
Where two headings read alike, the source gives them in different places.

Chains of the proteins cited; added tags and fusions are not shown. Residues count along the entry.
UniProt Q00535, whole entry: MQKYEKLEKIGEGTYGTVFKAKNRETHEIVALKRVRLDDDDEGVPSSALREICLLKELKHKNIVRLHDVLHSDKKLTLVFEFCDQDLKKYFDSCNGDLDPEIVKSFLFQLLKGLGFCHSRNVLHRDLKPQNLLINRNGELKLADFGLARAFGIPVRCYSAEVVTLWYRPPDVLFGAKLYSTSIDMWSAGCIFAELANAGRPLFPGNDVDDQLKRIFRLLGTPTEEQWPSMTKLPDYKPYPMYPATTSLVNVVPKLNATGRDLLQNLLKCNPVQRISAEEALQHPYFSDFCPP
UniProt Q15078, 99-307 partner limits assumed: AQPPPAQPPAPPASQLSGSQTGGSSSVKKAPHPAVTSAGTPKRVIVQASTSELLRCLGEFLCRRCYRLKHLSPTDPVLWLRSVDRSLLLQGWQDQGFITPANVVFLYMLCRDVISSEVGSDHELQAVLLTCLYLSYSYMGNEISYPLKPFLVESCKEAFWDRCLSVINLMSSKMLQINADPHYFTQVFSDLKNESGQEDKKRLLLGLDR

Columns and labels:
CDK5/p25 = CDK5/p25 (Homo sapiens, UniProt Q00535); assay: CDK5 mobility shift assay (enzymatic activity of CDK5/p25); settings: for CDK5/CDK2 specificity: fold more active against CDK5 than CDK2; for IC50: read-out: CDK5 IC50, 0.154 nM CDK5/p25, FL peptide 29, 60 min at room temperature
CDK2/CycA2 = CDK2/CycA2 (Homo sapiens, UniProt P24941); assay: CDK2 mobility shift assay (enzymatic activity of CDK2/CycA2); settings: read-out: CDK2 IC50, 1.25 nM CDK2/CycA2, 37 μM ATP, FL Peptide 18, 120 min at room temperature

Compound	CDK5/CDK2 specificity (CDK5/p25)	IC50 (CDK5/p25) [nM]	IC50 (CDK2/CycA2) [nM]	CDK5/CDK2 specificity (CDK5/p25; tested form: formate)	IC50 (CDK5/p25; tested form: formate) [nM]	IC50 (CDK2/CycA2; tested form: formate) [nM]
CN1CCC([C@@](C)(O)c2ccc3cnc(Nc4cc(N5CCCC5=O)ccc4F)cc3n2)CC1	++ (greater than 10-fold and less than or equal to 100-fold more active against CDK5 than CDK2)	< 10	10 to 100	–	–	–
COc1nccnc1-c1ccc(Nc2cc3nc(C(C)(O)C4CCN(C)CC4)ccc3cn2)c(F)c1 (stereo not drawn)	++ (greater than 10-fold and less than or equal to 100-fold more active against CDK5 than CDK2)	< 10	10 to 100	–	–	–
COC(=O)c1ccn(-c2ccc(Nc3cc4nc([C@H](C)C5CCN(C)CC5)ccc4cn3)c(F)c2)n1	++ (greater than 10-fold and less than or equal to 100-fold more active against CDK5 than CDK2)	100 to 1000	> 1000	–	–	–
COc1ccc(-c2ccc(Nc3cc4nc([C@@](C)(O)C5CCN(C)CC5)ccc4cn3)c(F)c2)cc1	++ (greater than 10-fold and less than or equal to 100-fold more active against CDK5 than CDK2)	100 to 1000	> 1000	–	–	–
CN1CCC(Sc2ccc3cnc(Nc4ccc(-c5cccc(C#N)c5)cc4F)cc3n2)CC1	+++ (greater than 100-fold more active against CDK5 than CDK2)	< 10	10 to 100	–	–	–
CC(C)N1CCC(N(CC(=O)O)c2ccc3cnc(Nc4ccc(-n5ccc(CO)n5)cc4F)cc3n2)CC1	+++ (greater than 100-fold more active against CDK5 than CDK2)	10 to 100	> 1000	–	–	–
COC(=O)c1ccn(-c2ccc(Nc3cc4nc([C@@H](C)C5CCN(C)CC5)ccc4cn3)c(F)c2)n1	+++ (greater than 100-fold more active against CDK5 than CDK2)	< 10	100 to 1000	–	–	–
C[C@H]1CNCC[C@H]1Sc1ccc2cnc(Nc3ccc(-n4ccc(CO)n4)cc3F)cc2n1	++ (greater than 10-fold and less than or equal to 100-fold more active against CDK5 than CDK2)	10 to 100	100 to 1000	–	–	–
O=C(O)CCN(c1ccc2cnc(Nc3ccc(-n4ccc(CO)n4)cc3F)cc2n1)C1CCNCC1	++ (greater than 10-fold and less than or equal to 100-fold more active against CDK5 than CDK2)	100 to 1000	> 1000	–	–	–
CN1CCC(Nc2ccc3cnc(Nc4ccc(-c5cccnc5)cc4F)cc3n2)CC1	++ (greater than 10-fold and less than or equal to 100-fold more active against CDK5 than CDK2)	< 10	100 to 1000	–	–	–
COc1cccc(-c2ccc(Nc3cc4nc(S(=O)(=O)C5CCN(C)CC5)ccc4cn3)c(F)c2)c1	+++ (greater than 100-fold more active against CDK5 than CDK2)	< 10	> 1000	–	–	–
C[C@@H]1C[C@@H](S(=O)(=O)c2ccc3cnc(Nc4ccc(-n5ccc(CO)n5)cc4F)cc3n2)CCN1	+ (10-fold or less more active against CDK5 than CDK2)	100 to 1000	> 1000	–	–	–
N[C@H]1CC[C@H](N(CC(=O)O)c2ccc3cnc(Nc4ccc(-n5cccn5)cc4F)cc3n2)CC1	++ (greater than 10-fold and less than or equal to 100-fold more active against CDK5 than CDK2)	100 to 1000	> 1000	–	–	–
COc1cccc(-c2ccc(Nc3cc4nc(S(=O)(=O)C5CCN(C)CC5)ccc4cn3)c(F)c2)n1	+++ (greater than 100-fold more active against CDK5 than CDK2)	< 10	> 1000	–	–	–
CCn1cccc(-c2ccc(Nc3cc4nc(C(C)(O)C5CCN(C)CC5)ccc4cn3)c(F)c2)c1=O (stereo not drawn)	++ (greater than 10-fold and less than or equal to 100-fold more active against CDK5 than CDK2)	< 10	100 to 1000	–	–	–
COc1cc(-c2ccc(Nc3cc4nc([C@](C)(O)C5CCN(C)CC5)ccc4cn3)c(F)c2)ccn1	++ (greater than 10-fold and less than or equal to 100-fold more active against CDK5 than CDK2)	< 10	100 to 1000	–	–	–
CN1CCC(C(O)c2ccc3cnc(Nc4ccc(-n5cccn5)cc4F)cc3n2)CC1 (stereo not drawn)	++ (greater than 10-fold and less than or equal to 100-fold more active against CDK5 than CDK2)	< 10	100 to 1000	–	–	–
CCOC(=O)c1cccc(-c2ccc(Nc3cc4nc(S(=O)(=O)C5CCN(C)CC5)ccc4cn3)c(F)c2)c1	+++ (greater than 100-fold more active against CDK5 than CDK2)	< 10	> 1000	–	–	–
N[C@H]1C[C@@H](S(=O)(=O)c2ccc3cnc(Nc4ccc(-n5ccc(CO)n5)cc4F)cc3n2)C1	+ (10-fold or less more active against CDK5 than CDK2)	100 to 1000	> 1000	–	–	–
CN1CCC(S(=O)(=O)c2ccc3cnc(Nc4cccnc4O)cc3n2)CC1	++ (greater than 10-fold and less than or equal to 100-fold more active against CDK5 than CDK2)	100 to 1000	> 1000	–	–	–

Compound	CDK5/CDK2 specificity (CDK5/p25)	IC50 (CDK5/p25) [nM]	IC50 (CDK2/CycA2) [nM]	CDK5/CDK2 specificity (CDK5/p25; tested form: formate)	IC50 (CDK5/p25; tested form: formate) [nM]	IC50 (CDK2/CycA2; tested form: formate) [nM]
CN1CCC(N(CC(=O)O)c2ccc3cnc(Nc4cccc(S(N)(=O)=O)c4)cc3n2)CC1	++ (greater than 10-fold and less than or equal to 100-fold more active against CDK5 than CDK2)	< 10	10 to 100	–	–	–
NS(=O)(=O)c1cccc(Nc2cc3nc(SC4CCNCC4)ccc3cn2)c1	++ (greater than 10-fold and less than or equal to 100-fold more active against CDK5 than CDK2)	< 10	10 to 100	–	–	–
CN1CCC(N(CC(=O)O)c2ccc3cnc(Nc4ccc(-c5cccc(C#N)c5)cc4F)cc3n2)CC1	++ (greater than 10-fold and less than or equal to 100-fold more active against CDK5 than CDK2)	< 10	100 to 1000	–	–	–
CN1CCC(S(=O)(=O)c2ccc3cnc(Nc4ccc(-c5cccnc5)cc4F)cc3n2)CC1	+++ (greater than 100-fold more active against CDK5 than CDK2)	< 10	100 to 1000	–	–	–
COc1nccc(-c2ccc(Nc3cc4nc(C(C)(O)C5CCN(C)CC5)ccc4cn3)cc2)n1 (stereo not drawn)	++ (greater than 10-fold and less than or equal to 100-fold more active against CDK5 than CDK2)	< 10	10 to 100	–	–	–
O=S(=O)(c1ccc2cnc(Nc3ccc(-n4ccc(CO)n4)cc3F)cc2n1)C1CNC1	+ (10-fold or less more active against CDK5 than CDK2)	100 to 1000	> 1000	–	–	–
CN1CCC([C@@](C)(O)c2ccc3cnc(Nc4ccc(-n5cc(C#N)cn5)cc4F)cc3n2)CC1	++ (greater than 10-fold and less than or equal to 100-fold more active against CDK5 than CDK2)	< 10	100 to 1000	–	–	–
CN1CCC([C@@](C)(O)c2ccc3cnc(Nc4ccc(N5CCN(C)C5=O)cc4F)cc3n2)CC1	++ (greater than 10-fold and less than or equal to 100-fold more active against CDK5 than CDK2)	< 10	10 to 100	–	–	–
CN1CCC(S(=O)(=O)c2ccc3cnc(Nc4ccc(CC#N)cc4)cc3n2)CC1	++ (greater than 10-fold and less than or equal to 100-fold more active against CDK5 than CDK2)	< 10	10 to 100	–	–	–
CN1CCC([C@@](C)(O)c2ccc3cnc(Nc4ccc(C(C)(C)O)nc4)cc3n2)CC1	++ (greater than 10-fold and less than or equal to 100-fold more active against CDK5 than CDK2)	< 10	10 to 100	–	–	–
O=S(=O)(c1ccc2cnc(Nc3ccc(-n4ccc(CO)n4)cc3F)cc2n1)C1CCN(CC2COC2)CC1	+++ (greater than 100-fold more active against CDK5 than CDK2)	< 10	100 to 1000	–	–	–
C[C@H]1CNCC[C@@H]1S(=O)(=O)c1ccc2cnc(Nc3ccc(-n4ccc(CO)n4)cc3F)cc2n1	–	–	–	++ (greater than 10-fold and less than or equal to 100-fold more active against CDK5 than CDK2)	< 10	100 to 1000
CN1CCC(S(=O)(=O)c2ccc3cnc(Nc4ccc(C5CCOCC5)cc4)cc3n2)CC1	+++ (greater than 100-fold more active against CDK5 than CDK2)	< 10	100 to 1000	–	–	–
CN1CCC(S(=O)(=O)c2ccc3cnc(Nc4cccc(C(N)=O)c4)cc3n2)CC1	+++ (greater than 100-fold more active against CDK5 than CDK2)	< 10	100 to 1000	–	–	–
CN1CCC(S(=O)(=O)c2ccc3cnc(Nc4ccc(N5CCOCC5=O)cc4)cc3n2)CC1	++ (greater than 10-fold and less than or equal to 100-fold more active against CDK5 than CDK2)	< 10	10 to 100	–	–	–
OCc1ccn(-c2ccc(Nc3cc4nc(SC5CCNCC5(F)F)ccc4cn3)c(F)c2)n1 (stereo not drawn)	++ (greater than 10-fold and less than or equal to 100-fold more active against CDK5 than CDK2)	< 10	10 to 100	–	–	–
CN[C@H](c1ccc2cnc(Nc3ccc(-n4cccn4)cc3F)cc2n1)C1CCN(C)CC1	++ (greater than 10-fold and less than or equal to 100-fold more active against CDK5 than CDK2)	10 to 100	100 to 1000	–	–	–
CN1CCC([C@H](O)c2ccc3cnc(Nc4ccc(-c5cccc(C#N)c5)cc4F)cc3n2)CC1 (single isomer, unassigned)	++ (greater than 10-fold and less than or equal to 100-fold more active against CDK5 than CDK2)	10 to 100	> 1000	–	–	–
COc1ccc(-c2ccc(Nc3cc4nc(S(=O)(=O)C5CCN(C)CC5)ccc4cn3)c(F)c2)cc1	+++ (greater than 100-fold more active against CDK5 than CDK2)	< 10	100 to 1000	–	–	–
COc1ncccc1-c1ccc(Nc2cc3nc(S(=O)(=O)C4CCN(C)CC4)ccc3cn2)c(F)c1	+++ (greater than 100-fold more active against CDK5 than CDK2)	< 10	> 1000	–	–	–
